{"source": "patent US8003632B2", "about": "“Cholinesterase inhibitors for treating inflammation” (priority 2004, dated 2011)", "tested_on": "murine CLP model of sepsis", "test": "Survival in murine CLP model of sepsis", "format": "in vivo, mice", "conditions": "Day 6; 1.25 ug/kg i.p. from 24 h after CLP for 3 days; vehicle about 50%", "data": [{"smiles": "C/C=C1\\[C@H]2C=C(C)C[C@]1(N)c1ccc(=O)[nH]c1C2", "values": [{"measurement": "mice survived", "result": "about 80%"}]}]}
